Reference: US6632456B1, “Compositions for inhalation” (AstraZeneca AB, priority 1994, dated 2003)

Tested on: CaCo-2 epithelial cell monolayer
Experiment: CaCo-2 epithelial cell monolayer transport assay
Type: in vitro ADME
Conditions: CaCo-2, 16 mM sodium caprate, compared to absence of any enhancer
Procedure: A standard in vitro assay utilizing an epithelial cell line, CaCo-2 (available through the American Type Culture Collection (ATCC), Rockville, Md., USA), has been developed to assess the ability of various enhancer compounds to promote transport of markers across an epithelial cell monolayer, as a model for the epithelial cell layer which functions in the lung to separate the alveolus from the pulmonary blood supply.
In this assay, the enhancer and polypeptide or other marker are dissolved in aqueous solution at various proportions and/or concentrations, and applied to the apical side of the cell monolayer. After 60 min incubation at 37° C. and 95% RH (relative humidity), the amount of the marker on the basolateral side of the cells is determined, e.g., by use of a radioactively labelled marker.

vasopressin
amount of vasopressin absorbed across the monolayer, increase: 10-15 times

insulin
amount of insulin which passed across the monolayer: doubled
